# Results from US20160206726A1, “IMMUNOTHERAPY” (priority 2013, published 2016).
# What was measured:
# Type in all cases: in vitro ADME, human
# LCLs (tumour B cells) = assay: Plasma stability of cyclic peptide in LCL model (IFN-γ T cell recognition after plasma treatment)
# Description: LCLs (tumour B cells) were incubated with or without a protease inhibitor cocktail (PIC) for 2 hrs at 37° C. 10 ug cyclic peptide or 10 ug linear peptide which had been treated for 4 hrs @ 37° C. with human plasma, was added to PIC treated or untreated cells. The cyclic peptide was the same as that described in Example 1. These cells were incubated with peptide-specific T cells overnight and IFN-γ assayed for T cell recognition of the processed peptide.
# [1] = tested on: SW620 cells (colorectal cell line); assay: Plasma stability of cyclic peptide in colorectal cancer model (IFN-γ T cell recognition after plasma treatment)
# Description: (§1) SW620 cells (colorectal cell line) were incubated with 10 ug cyclic peptide or 10 ug linear peptide which had been treated for 2 hrs @ 37° C. with human plasma. These cells were incubated with peptide-specific T cells overnight and IFN-γ assayed for T cell recognition of the processed peptide. The cyclic peptide was the same as that described in Example 1.
# LCL target cells = assay: Comparison of the plasma stability of cyclic peptide and APEC in LCL model (IFN-γ T cell recognition after plasma treatment)
# Description: as §1, with “10” for “SW620 cells (colorectal cell line) were incubated with 10”, “APEC,” for “linear peptide”, “4” for “2”, “plasma, was added to target cells.” for “plasma.”
sequence,measurement,setting,value
FRGGANLVPMVATVAA [cyclic peptide],T cell response (IFN-γ) to target cells after plasma treatment of the peptide,"LCLs (tumour B cells); LCLs, 10 ug peptide treated 4 hrs at 37° C with human plasma",decreased the responses but there is clearly still a response
same,time the peptide is stable in plasma,"LCLs (tumour B cells); human plasma 37° C, readout T cell response to LCLs",at least 4 hours
same,decrease of the T cell response by serum treatment,"[1]; SW620 cells, 10 ug peptide treated 2 hrs at 37° C with human plasma",~60%
same,time the peptide is stable in plasma,"[1]; human plasma 37° C, readout T cell response to SW620 cells",at least 2 hours
same,decrease of the T cell response by serum treatment compared with untreated agent,"LCL target cells; LCL model, 10 ug treated 4 hrs at 37° C with human plasma",~50%
same,time the peptide is stable in plasma,"LCL target cells; human plasma 37° C, readout T cell response in LCL model",at least 4 hours
